# Data reported in patent US6344180B1 (BioNebraska, Inc., priority 1999, dated 2002).
# Test: Side effects reported on questioning during the tests
# Method: During the hyperglycemic clamp, glucose (50% w/v) was injected at time zero to increase the plasma glucose to 30 mmol/l (calculated as follows: (30 mmol/l−fasting plasma glucose)×35 mg glucose×weight in kilogram). Plasma glucose was kept at 30 mmol/l by continuous infusion of glucose, which was adjusted according to a bedside measurement of plasma glucose ever 5 minutes. At 45 minutes, 5 g L-arginine monohydrochloride was injected as a bolus during 30 seconds. Blood was sampled 15, 10 and 0 minutes before and 5, 10, 15, 20, 25, 30, 35, 40, 45, 47, 48, 49, 51, 53, 55, 60, 65, 70, 75 and 90 minutes after elevation of plasma glucose. The L-arginine was dissolved in 50 ml of sterilized water and dispensed into glass ampoules and stored at 4° C. until the day of the experiment. Blood was sampled into fluoride tubes for measurement of glucose and into chilled EDTA tubes with aprotinin (500 KIU/ml blood; Trasylol, Bayer, Leverkusen, Germany) for peptide analyses. Tubes were immediately cooled on ice and centrifuged within 20 minutes at 4° C., and plasma was stored at −20° C. until analysis.
# [1] = glucagon test (1 mg I.V.), part one
substance,measurement,setting,value
glucagon,Participants complaining of nausea,[1],75%
same,Participants complaining of reduced well-being,[1],83%
same,Participants complaining of nausea,"glucagon-test, part two",46%
same,Participants complaining of reduced well-being,"glucagon-test, part two",54%
